Experimental data: patent US9441014B2, “Skin permeating and cell entering (SPACE) peptides and methods of use thereof” (The Regents of the University of California, priority 2010, dated 2016)

system: dermis; conditions: phage extracted from dermis

Sequence	occurrence of leading sequences in the fifth round of dermis screen [%]
ACKTGSHNQCG [AC-KTGSHNQ-CG]	30
ACMGPSSMLCG [AC-MGPSSML-CG]	30
ACTDPNQLQCG [AC-TDPNQLQ-CG]	20
